Results on eight molecules are retold here after patent publication US20180305345A1 (priority 2015, published 2018).

This test relates to VSVΔ51 in 786-0 cells. Briefly: Viral sensitizer activity: VSVΔ51-FLuc output (VEU) by luciferase reporter assay. To be noted: at the PFC dose, NE = did not detectably increase viral output. Type of test: cell-based, human.

As to `O=C1NC(O)C(Cl)=C1Cl` (centres unmarked) [Compound 9], the “Normalized PFC (Peak Fold Change in Viral Expression Unit normalized to VSe1)” value (listed as compound 9) is listed as “enhanced viral expression”. Turning to `O=C1C(Cl)=C(Cl)C(O)N1C1CC1` (centres unmarked) [Compound 25, 3,4-dichloro-1-cyclopropyl-5-hydroxy-1H-pyrrol-2(5H)-one], the “Normalized PFC (Peak Fold Change in Viral Expression Unit normalized to VSe1)” value (listed as compound 25) was “retained activity”. Turning to `O=C1OCC(Cl)=C1Cl` [Compound 5, 3,4-Dichloro-5H-furan-2-one], the “Normalized PFC (Peak Fold Change in Viral Expression Unit normalized to VSe1)” value (listed as compound 5) is “active”. Regarding `O=C1C(Cl)=C(Cl)C(O)N1CCN1CCOCC1` (centres unmarked) [Compound 28, 3,4-dichloro-5-hydroxy-1-(2-morpholinoethyl)-1H-pyrrol-2(5H)-one], under “listed as compound 28”, the “Normalized PFC (Peak Fold Change in Viral Expression Unit normalized to VSe1)” value is “promising activity”. With `CC(C)CNC1=C(Cl)C(=O)OC1c1ccccc1` (centres unmarked) [Compound 4], under “listed as compound 4”, the “Normalized PFC (Peak Fold Change in Viral Expression Unit normalized to VSe1)” value is “loss of viral enhancement activity”. With `O=C1C(Cl)=C(Cl)C(O)N1Cc1ccccc1` (stereo not drawn) [Compound 10, α,β-dichloro-γ-hydroxy-N-benzyl-crotonic lactam], the “Normalized PFC (Peak Fold Change in Viral Expression Unit normalized to VSe1)” value (listed as compound 10) is recorded as “enhanced viral expression”. For the molecule `O=C1OC(c2ccccc2)C(NCc2ccccc2)=C1Cl` (centres unmarked) [Compound 3], the “Normalized PFC (Peak Fold Change in Viral Expression Unit normalized to VSe1)” value (listed as compound 3) is listed as “loss of viral enhancement activity”. Consider `COC1OC(=O)C(Cl)=C1Cl` (centres unmarked) [Compound 6], for which the “Normalized PFC (Peak Fold Change in Viral Expression Unit normalized to VSe1)” value (listed as compound 6) was “active”.
